Where two headings read alike, the source gives them in different places.
Key:
HS 578T (Breast Cancer) = experiment: NCI DTP tumor cell line screen (SRB), HS 578T; conditions: Log10 Concentration −8.0
PC-3 (Prostate Cancer) = experiment: NCI DTP tumor cell line screen (SRB), PC-3; conditions: PC-3, Log10 Concentration −4.0
HCT-15 (Colon Cancer) = experiment: NCI DTP tumor cell line screen (SRB), HCT-15
MALME-3M (Melanoma) = experiment: NCI DTP tumor cell line screen (SRB), MALME-3M
[1] = test system: NCI-H23 (Non-Small Cell Lung Cancer)
[2] = test system: NCI/ADR-RES (Breast Cancer)
786-0 (Renal Cancer) = experiment: NCI DTP tumor cell line screen (SRB), 786-0
CAKI-1 (Renal Cancer) = experiment: NCI DTP tumor cell line screen (SRB), CAKI-1; conditions: CAKI-1, Log10 Concentration −7.0
SK-MEL-5 (Melanoma) = experiment: NCI DTP tumor cell line screen (SRB), SK-MEL-5; conditions: SK-MEL-5, Log10 Concentration −5.0
UACC-62 (Melanoma) = experiment: NCI DTP tumor cell line screen (SRB), UACC-62; conditions: UACC-62, Log10 Concentration −8.0
KM12 (Colon Cancer) = experiment: NCI DTP tumor cell line screen (SRB), KM12; conditions: KM12, Log10 Concentration −6.0
UO-31 (Renal Cancer) = experiment: NCI DTP tumor cell line screen (SRB), UO-31; conditions: UO-31, Log10 Concentration −6.0
MCF7 (Breast Cancer) = experiment: NCI DTP tumor cell line screen (SRB), MCF7
DU-145 (Prostate Cancer) = experiment: NCI DTP tumor cell line screen (SRB), DU-145; conditions: DU-145, Log10 Concentration −7.0
ACHN (Renal Cancer) = experiment: NCI DTP tumor cell line screen (SRB), ACHN; conditions: Log10 Concentration −7.0
[3] = test system: EKVX (Non-Small Cell Lung Cancer); experiment: NCI DTP tumor cell line screen (SRB), EKVX
RXF 393 (Renal Cancer) = experiment: NCI DTP tumor cell line screen (SRB), RXF 393; conditions: RXF 383, Log10 Concentration −5.0
LOX IMVI (Melanoma) = experiment: NCI DTP tumor cell line screen (SRB), LOX IMVI; conditions: Log10 Concentration −7.0
SN12C (Renal Cancer) = experiment: NCI DTP tumor cell line screen (SRB), SN12C
[4] = test system: A549/ATCC (Non-Small Cell Lung Cancer); experiment: NCI DTP tumor cell line screen (SRB), A549/ATCC
[5] = test system: MDA-MB-435 (Breast Cancer); experiment: NCI DTP tumor cell line screen (SRB), MDA-MB-435
[6] = test system: NCI-H522 (Non-Small Cell Lung Cancer); conditions: NCI-H522, Log10 Concentration −7.0
MOLT-4 (Leukemia) = experiment: NCI DTP tumor cell line screen (SRB), MOLT-4
SK-OV-3 (Ovarian Cancer) = experiment: NCI DTP tumor cell line screen (SRB), SK-OV-3; conditions: SK-OV-3, Log10 Concentration −8.0
SK-MEL-2 (Melanoma) = experiment: NCI DTP tumor cell line screen (SRB), SK-MEL-2; conditions: SK-MEL-2, Log10 Concentration −6.0
[7] = test system: HOP-92 (Non-Small Cell Lung Cancer); experiment: NCI DTP tumor cell line screen (SRB), HOP-92; conditions: HOP-92, Log10 Concentration −8.0
HCT-116 (Colon Cancer) = experiment: NCI DTP tumor cell line screen (SRB), HCT-116; conditions: HCT-116, Log10 Concentration −7.0
OVCAR-4 (Ovarian Cancer) = experiment: NCI DTP tumor cell line screen (SRB), OVCAR-4; conditions: OVCAR-4, Log10 Concentration −8.0
SK-MEL-28 (Melanoma) = experiment: NCI DTP tumor cell line screen (SRB), SK-MEL-28
OVCAR-3 (Ovarian Cancer) = experiment: NCI DTP tumor cell line screen (SRB), OVCAR-3; conditions: OVCAR-3, Log10 Concentration −7.0
M14 (Melanoma) = experiment: NCI DTP tumor cell line screen (SRB), M14
OVCAR-5 (Ovarian Cancer) = experiment: NCI DTP tumor cell line screen (SRB), OVCAR-5; conditions: OVCAR-5, Log10 Concentration −7.0
COLO 205 (Colon Cancer) = experiment: NCI DTP tumor cell line screen (SRB), COLO 205; conditions: COLO 205, Log10 Concentration −5.0
OVCAR-8 (Ovarian Cancer) = experiment: NCI DTP tumor cell line screen (SRB), OVCAR-8; conditions: OVCAR 8, Log10 Concentration −7.0
[8] = test system: HOP-62 (Non-Small Cell Lung Cancer); experiment: NCI DTP tumor cell line screen (SRB), HOP-62; conditions: HOP-62, Log10 Concentration −6.0
K-562 (Leukemia) = experiment: NCI DTP tumor cell line screen (SRB), K-562; conditions: K-562, Log10 Concentration −7.0
HT29 (Colon Cancer) = experiment: NCI DTP tumor cell line screen (SRB), HT29; conditions: Log10 Concentration −8.0
CCRF-CEM (Leukemia) = experiment: NCI DTP tumor cell line screen (SRB), CCRF-CEM; conditions: Log10 Concentration −8.0
BT-549 (Breast Cancer) = experiment: NCI DTP tumor cell line screen (SRB), BT-549; conditions: Log10 Concentration −4.0

## 4-[5-(2-Phenanthrenyl)-3-(trifluoromethyl)-1H-pyrazol-1-yl]-phenyl -guanidine [Compound 71]
HS 578T (Breast Cancer)
  Percent Growth: 89%
PC-3 (Prostate Cancer)
  Percent Growth: −26%
HCT-15 (Colon Cancer); HCT-15, Log10 Concentration −6.0
  Percent Growth: 84%
HCT-15 (Colon Cancer); HCT-15, Log10 Concentration −7.0
  Percent Growth: 81%
MALME-3M (Melanoma); Log10 Concentration −5.0
  Percent Growth: −87%
MALME-3M (Melanoma); Log10 Concentration −7.0
  Percent Growth: 54%
[1]; NCI-H23, Log10 Concentration −7.0
  Percent Growth: 87%
[1]; NCI-H23, Log10 Concentration −8.0
  Percent Growth: 93%
[2]; Log10 Concentration −5.0
  Percent Growth: −12%
[2]; Log10 Concentration −7.0
  Percent Growth: 96%
786-0 (Renal Cancer); 786-0, Log10 Concentration −5.0
  Percent Growth: −93%
786-0 (Renal Cancer); 786-0, Log10 Concentration −7.0
  Percent Growth: 96%
786-0 (Renal Cancer); 786-0, Log10 Concentration −8.0
  Percent Growth: 96%
CAKI-1 (Renal Cancer)
  Percent Growth: 89%
SK-MEL-5 (Melanoma)
  Percent Growth: −74%
UACC-62 (Melanoma)
  Percent Growth: 81%
KM12 (Colon Cancer)
  Percent Growth: 87%
UO-31 (Renal Cancer)
  Percent Growth: 87%
MCF7 (Breast Cancer); Log10 Concentration −5.0
  Percent Growth: −84%
MCF7 (Breast Cancer); Log10 Concentration −8.0
  Percent Growth: 93%
DU-145 (Prostate Cancer)
  Percent Growth: 87%
ACHN (Renal Cancer)
  Percent Growth: 81%
[3]; Log10 Concentration −4.0
  Percent Growth: −74%
[3]; Log10 Concentration −6.0
  Percent Growth: 54%
RXF 393 (Renal Cancer)
  Percent Growth: −61%
LOX IMVI (Melanoma)
  Percent Growth: 84%
SN12C (Renal Cancer); Log10 Concentration −6.0
  Percent Growth: 87%
SN12C (Renal Cancer); Log10 Concentration −8.0
  Percent Growth: 88%
[4]; Log10 Concentration −6.0
  Percent Growth: 93%
[4]; Log10 Concentration −7.0
  Percent Growth: 96%
[4]; Log10 Concentration −8.0
  Percent Growth: 96%
[5]; MDA-MB-435, Log10 Concentration −7.0
  Percent Growth: 89%
[5]; MDA-MB-435, Log10 Concentration −8.0
  Percent Growth: 89%
[6]
  Percent Growth: 87%
MOLT-4 (Leukemia); MOLT-4, Log10 Concentration −4.0
  Percent Growth: −54%
MOLT-4 (Leukemia); MOLT-4, Log10 Concentration −5.0
  Percent Growth: −54%
MOLT-4 (Leukemia); MOLT-4, Log10 Concentration −8.0
  Percent Growth: 81%
SK-OV-3 (Ovarian Cancer)
  Percent Growth: 93%
SK-MEL-2 (Melanoma)
  Percent Growth: 87%
[7]
  Percent Growth: 86%
HCT-116 (Colon Cancer)
  Percent Growth: 86%
OVCAR-4 (Ovarian Cancer)
  Percent Growth: 81%
SK-MEL-28 (Melanoma); SK-MEL-28, Log10 Concentration −6.0
  Percent Growth: 86%
SK-MEL-28 (Melanoma); SK-MEL-28, Log10 Concentration −8.0
  Percent Growth: 93%
OVCAR-3 (Ovarian Cancer)
  Percent Growth: 81%
M14 (Melanoma); M14, Log10 Concentration −6.0
  Percent Growth: 81%
M14 (Melanoma); M14, Log10 Concentration −8.0
  Percent Growth: 74%
OVCAR-5 (Ovarian Cancer)
  Percent Growth: 86%
COLO 205 (Colon Cancer)
  Percent Growth: −96%
OVCAR-8 (Ovarian Cancer)
  Percent Growth: 96%
[8]
  Percent Growth: 96%
K-562 (Leukemia)
  Percent Growth: 89%

## NCC(=O)Nc1ccc(-n2nc(C(F)(F)F)cc2-c2ccc3c(ccc4ccccc43)c2)cc1 [Compound 70, 2-Amino-N-{4-[5-(2-phenanthrenyl)-3-(trifluoromethyl)-1H-pyrazol-1-yl]-phenyl}-acetamide]
HCT-15 (Colon Cancer); HCT-15, Log10 Concentration −4.0
  Mean Optical Densities: 0.278
MALME-3M (Melanoma); Log10 Concentration −8.0
  Mean Optical Densities: 1.123
HT29 (Colon Cancer)
  Mean Optical Densities: 1.355
CCRF-CEM (Leukemia)
  Mean Optical Densities: 0.893
BT-549 (Breast Cancer)
  Mean Optical Densities: 0.195

From patent US8741944B2, “Anti-infective agents against intracellular pathogens” (priority 2007, dated 2014)
